scFv variants of Ab-14 (heavy chain) against a SARS-CoV-2 spike peptide

Values reported by Li et al. 2023, doi:10.1038/s41467-023-39022-2 (FLAb copy).

All variants were tested on one target, the spike HR2 peptide PDVDLGDISGINAS (SARS-CoV-2).

Each scFv is VH, a (GGGGS)3 linker, VL, as in the parent Ab-14, and differs from it in the CDRs of the heavy chain only.
VH: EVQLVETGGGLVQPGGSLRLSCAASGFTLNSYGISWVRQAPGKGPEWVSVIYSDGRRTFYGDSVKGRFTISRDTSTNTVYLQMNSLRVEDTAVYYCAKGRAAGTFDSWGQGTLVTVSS
VL: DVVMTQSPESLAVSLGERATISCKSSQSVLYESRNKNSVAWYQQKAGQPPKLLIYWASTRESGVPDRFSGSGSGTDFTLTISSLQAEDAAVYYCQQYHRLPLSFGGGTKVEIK

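Phage display of a naive human antibody library on the peptide gave the parent. This is the validation round: designs drawn from the data on random variants, tested in the same kind of assay. Group labels follow the data file (Ctrl: baseline library sampled from a position-specific scoring matrix, with some repeated check sequences; Rand: our label for a block that the file lists under HC and that is probably the random mutants of the ten best first-round binders; En: ensemble of fine-tuned language models; GP: Gaussian process model; GPLM: also part of the Gaussian process libraries; HC: hill climbing; Gen: genetic algorithm; Gibbs: Gibbs sampling; a sequence that several methods proposed may carry one label only). The scFvs were displayed on barcoded MATa yeast, the peptide on MATalpha yeast. Pairs that bind mate more often; barcode pairs of the diploids are counted by sequencing. The ratio of observed to expected reads was calibrated, replicate by replicate, on BCL2-family standards whose Kd was known from biolayer interferometry. There are six technical replicates.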

Each variant is given by its three heavy chain CDRs, as the data file delimits them; those of the parent are GFTLNSYGIS, VIYSDGRRTFYGDSVK, GRAAGTFDS. Variants here have at most six changes. Numbers give log10(Kd / nM), so 0 is 1 nM and 3 is 1 µM. Smaller is tighter. An entry "nd" has no value in the source: the pair was not observed among the diploids in that replicate. This suggests poor binding but is not conclusive.

For GFHLNSYGIS / VIYADGRRTFYGDSVK / GRTAGTFDS [GP_Gen], the assay gave 0.40, 0.17, 0.14, 0.41, 0.05, -0.09 (controls 1 of 18). Variant GFTLNSYGIS / VIYSDGKRTFYSDSVK / GRSAGTFDS [GPLM_Gibbs] gave 1.04, 1.16, 0.39, 1.50, nd, 1.85 (controls 0 of 18). Variant GFTLNSYGIS / VIYSDGRRTFYGDSVK / GRRAGTFDW [Ctrl] showed nd, nd, nd, nd, nd, nd (controls 1 of 18). For GFTLNEYGIS / VIYSDGRRTFHTDSVK / WRFAGTFDS [Rand], the assay gave nd, nd, nd, nd, nd, nd (controls 0 of 18). Variant GFELNSYGIS / VIYSDGKRTFYGDSVK / GRTAGTFDS [GPLM_Gibbs] gave 0.54, 0.24, 0.42, 0.15, 0.37, 0.47 (controls 0 of 18). With GFTLNSYGKS / VIYSDGLRTFYGDSVK / GRNAGTFDS [Ctrl] the result was nd, nd, nd, nd, nd, nd (controls 0 of 18). Variant GFTLNSYGIS / VIYADGRRTFYGDSVK / GRAAITNKS [Rand] showed nd, nd, nd, nd, nd, nd (controls 0 of 18).

Variant GFTLNEYGIS / VIYSDGRRTHYGDSVK / GQAEGTFDD [Ctrl] gave nd, nd, nd, nd, nd, 3.36 (controls 2 of 18). For KFNLNSYGIS / VIYSDGRRTFYGDSVK / GRQAGTFDS [GP_Gen], the assay gave nd, nd, nd, nd, nd, nd (controls 0 of 18). Variant KFSLNCYGIS / VIYSDGRRTFYGDSVK / GKTAGTFDS [GP_Gibbs] showed 0.12, 0.60, 0.03, 0.54, 0.09, 0.10 (controls 0 of 18). Variant GFQLNEYGIS / VIYSDGRRTFYGDSVK / GRAAGTFDV [GP_HC] gave 1.31, 0.04, 0.19, 0.83, 0.34, 0.19 (controls 0 of 18). For GFSLNSYGIS / VIYSDGRRTFYHDSVK / GKAAGTFDS [GPLM_Gen], the assay gave 1.43, nd, nd, nd, nd, nd (controls 0 of 18). Variant GFNLNSYGIS / VIYSDGRRTFYGDRVK / GKTAGTFDS [GP_Gen] gave 0.92, 2.09, 0.52, 0.96, 1.12, 1.19 (controls 0 of 18). For GFTLNSYGIS / VIYSDGRRTFYSDSVK / GSAAGTFDA [GPLM_HC], the assay gave 0.76, 0.81, 0.31, 0.46, 0.87, 0.70 (controls 0 of 18).

Variant GFTLNEYGIS / VIYSDGRRTFYGDSVK / GRVAGTFDF [GPLM_HC] gave 0.31, 0.07, -0.15, 0.16, 0.00, 0.11 (controls 0 of 18). Variant GFTLNSYGIS / VIYSFGLRTFYADSVK / GRAIGTFDS [Ctrl] gave nd, nd, nd, nd, nd, nd (controls 0 of 18). With GFDLNEYGIS / VIYADGRRTFYTDSVK / GNVAGTFDS [En_HC] the result was -0.42, -0.23, -0.71, -0.65, -0.54, -0.40 (controls 0 of 18). Variant GFSLNSYGIS / VIYSDGRRTFYDDSVK / GMAAGTFDS [GP_HC] showed -0.03, nd, 0.28, 0.57, -0.09, -0.30 (controls 0 of 18). For GFTLDSYGIS / VIYSDGRRTFYGDSVK / GRAAGTFVR [GP_HC], the assay gave nd, nd, nd, nd, nd, nd (controls 0 of 18). With GFTINQYGIS / VIYSDGRRTFYGDSVK / TRAAGTIDT [Ctrl] the result was nd, nd, nd, nd, nd, nd (controls 0 of 18). Variant GFSLNSYGIS / VIYSDGRRTFYADMVK / GTAAGTFDS [GP_Gibbs] gave -0.76, 0.36, nd, nd, 0.62, 1.49 (controls 0 of 18).

Variant GFTVNSYGIS / VIYSDGRRTFYGDSVK / GRAAGCDDS [Ctrl] showed nd, nd, nd, nd, nd, nd (controls 0 of 18). Variant GFTLNEYGIS / VIYSDGRRTFYGDSEK / GRAAVTFDQ [Rand] gave nd, nd, nd, nd, nd, nd (controls 0 of 18). With GFTVNSYGIS / VIYSDGRRTFYGDSVK / GRHAKRFDS [Ctrl] the result was nd, nd, nd, nd, nd, nd (controls 0 of 18). For GFSLNEYGIS / VIYSDGRRTFYGDSVK / GTAAGTFDT [GP_Gen], the assay gave 0.31, -0.10, 0.18, -0.24, 0.02, 0.12 (controls 1 of 18). For GFKLNSYGIS / VIYSDGRRTFYKDSVK / GNEAGTFDS [GP_Gibbs], the assay gave -0.28, -0.11, -0.60, -0.31, 0.64, -0.89 (controls 0 of 18). Variant GFTLNSQGIS / VIYSDGRRTFYGDKVK / GRAAGTFDS [Ctrl] showed nd, nd, nd, nd, nd, nd (controls 0 of 18). Variant GFTLNSYGIS / VIYSDGRRTFYGDSVK / GRAAGTSLS [Ctrl] showed nd, nd, nd, nd, nd, nd (controls 0 of 18).

Variant GFDLNWYGIS / VIYSDGRRTFYADSVK / GRTAGTFDS [GP_Gibbs] showed 0.58, 0.17, 0.23, 0.36, 0.34, 0.49 (controls 1 of 18). Variant GFTLNEYGIS / VIYSDGRRVFYHDSVR / GRAAGTFDS [Ctrl] showed 1.11, 1.45, 2.09, 2.58, 0.64, 1.09 (controls 1 of 18). With GFLLNDYGIS / VIYSDGRRTFYKDSVK / GQAAGTFDS [GP_HC] the result was 0.91, 0.69, 0.22, 0.67, 0.74, 0.79 (controls 0 of 18). Variant GFTLDSYGIS / VIYSDGRRTFYGDSVK / GRAAGTFDT [GPLM_HC] showed nd, nd, nd, nd, nd, nd (controls 0 of 18). With GFTLNSYGIS / VIYSDGRRTFYGDSFV / GRAAGTFKS [Ctrl] the result was nd, nd, nd, nd, nd, nd (controls 0 of 18). Variant GFELNDYGIS / VIYSDGRRTFYTDSVK / GKAAGTFDS [GP_Gibbs] showed 0.35, 0.15, 0.99, 0.28, 0.22, 0.62 (controls 1 of 18). Variant GFTLNEYGIS / VIYSDGRRTFYGDSVK / GRAAVTFAK [GP_HC] showed nd, nd, nd, nd, nd, nd (controls 0 of 18).

For GRTLNSYGIS / VIYSDGRRTFYGDSVK / GRAAGTFRS [Ctrl], the assay gave nd, nd, nd, nd, nd, nd (controls 0 of 18). Variant GFDLNEYGIS / VIYADGRRTFYADSVK / GGAAGTFDQ [En_HC] gave -0.24, -0.37, -0.42, -0.36, -0.30, -0.38 (controls 0 of 18). Variant GFTLDSYGIS / VIYSDGRRTFYSDSVK / GRAVGTFDS [GPLM_HC] gave nd, nd, nd, nd, nd, nd (controls 1 of 18). Variant GFELNSYGIS / VIYADGRRWFYGDSVK / GRQAGTFDS [GP_Gibbs] gave 0.59, nd, 0.58, 0.50, nd, 0.69 (controls 0 of 18). For GFDLNSYGIS / VIYSDGKRTFYGDSVK / GKTAGTFDV [GP_Gibbs], the assay gave 0.10, -0.21, -0.21, -0.19, -0.28, 0.07 (controls 0 of 18). Variant KFSLNTYGIS / VIYSDGRRTFYGDSVK / GRTAGTFDS [GPLM_Gen] showed -1.41, -1.47, -1.00, -1.54, -1.16, -0.91 (controls 0 of 18).

A selection of 5 entries from above:

{"CDR-H1": "GFTLNSYGIS", "CDR-H2": "VIYSFGLRTFYADSVK", "CDR-H3": "GRAIGTFDS", "group": "Ctrl", "log10 Kd, replicates": "nd, nd, nd, nd, nd, nd", "empty controls": "0/18"}
{"CDR-H1": "GFTLNEYGIS", "CDR-H2": "VIYSDGRRTFYGDSVK", "CDR-H3": "GRVAGTFDF", "group": "GPLM_HC", "log10 Kd, replicates": "0.31, 0.07, -0.15, 0.16, 0.00, 0.11", "empty controls": "0/18"}
{"CDR-H1": "GFELNDYGIS", "CDR-H2": "VIYSDGRRTFYTDSVK", "CDR-H3": "GKAAGTFDS", "group": "GP_Gibbs", "log10 Kd, replicates": "0.35, 0.15, 0.99, 0.28, 0.22, 0.62", "empty controls": "1/18"}
{"CDR-H1": "GFTLNEYGIS", "CDR-H2": "VIYSDGRRTFYGDSEK", "CDR-H3": "GRAAVTFDQ", "group": "Rand", "log10 Kd, replicates": "nd, nd, nd, nd, nd, nd", "empty controls": "0/18"}
{"CDR-H1": "GFDLNEYGIS", "CDR-H2": "VIYADGRRTFYADSVK", "CDR-H3": "GGAAGTFDQ", "group": "En_HC", "log10 Kd, replicates": "-0.24, -0.37, -0.42, -0.36, -0.30, -0.38", "empty controls": "0/18"}

The parent sequence was in this pool as ten entries: three were never detected, three once, and four in most replicates, with averages from 0.34 to 2.37. Three control strains display no target. For all heavy chain designs, 1% of the pairings with them gave a signal, with a median of 2.08 and one signal in twenty below 0.84, so weak values seen in few replicates may be background. The control count says in how many pairings with the empty strains this scFv gave a signal. The authors averaged sequences with at least three values out of six and counted those with two or fewer as poor binders. A sequence measured in both rounds can read differently, since the two assays cover different ranges.